Test results: paper PMC12678798, “Discovery of an allosteric binding site for anthraquinones at the human P2X4 receptor” (Nature Communications, 2025)

Key:
human wt P2X4 receptor = target: T1, human wt P2X4 receptor (Homo sapiens, UniProt Q99571); assay: ATP-induced calcium influx assay, human wt P2X4 receptor in 1321N1 astrocytoma cells; assay type: cell-based
T1 construct: expressed in transfected cells
T1 sequence (Q99571 1-388): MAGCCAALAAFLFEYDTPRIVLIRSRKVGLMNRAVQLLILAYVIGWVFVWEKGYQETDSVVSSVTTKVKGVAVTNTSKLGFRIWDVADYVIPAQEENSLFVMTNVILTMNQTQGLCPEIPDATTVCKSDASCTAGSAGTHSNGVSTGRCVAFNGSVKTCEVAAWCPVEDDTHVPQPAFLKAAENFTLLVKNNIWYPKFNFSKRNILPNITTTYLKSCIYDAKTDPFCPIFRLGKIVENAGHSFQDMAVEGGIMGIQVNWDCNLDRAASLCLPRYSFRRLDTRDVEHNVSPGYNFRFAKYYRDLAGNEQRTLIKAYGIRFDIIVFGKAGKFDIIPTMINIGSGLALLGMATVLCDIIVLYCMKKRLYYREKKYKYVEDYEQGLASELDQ

[1] = target: T2, chimeric P2X4(P2X2) receptor c10^R301-Q308 (Homo sapiens, UniProt Q99571, A304N/D302K/DEL301-301/E307T/L303I/N306T/Q308T); assay: ATP-induced calcium influx assay, chimeric receptor c10 in 1321N1 astrocytoma cells; assay type: cell-based
T2 construct: expressed in transfected cells; gene synthesis (Geneart), pLVX-IRES-mCherry (bicistronic, mCherry not fused)
T2 sequence (Q99571 with tags, fused parts or gaps DEL301-301/D302K/L303I/A304N/N306T/E307T/Q308T): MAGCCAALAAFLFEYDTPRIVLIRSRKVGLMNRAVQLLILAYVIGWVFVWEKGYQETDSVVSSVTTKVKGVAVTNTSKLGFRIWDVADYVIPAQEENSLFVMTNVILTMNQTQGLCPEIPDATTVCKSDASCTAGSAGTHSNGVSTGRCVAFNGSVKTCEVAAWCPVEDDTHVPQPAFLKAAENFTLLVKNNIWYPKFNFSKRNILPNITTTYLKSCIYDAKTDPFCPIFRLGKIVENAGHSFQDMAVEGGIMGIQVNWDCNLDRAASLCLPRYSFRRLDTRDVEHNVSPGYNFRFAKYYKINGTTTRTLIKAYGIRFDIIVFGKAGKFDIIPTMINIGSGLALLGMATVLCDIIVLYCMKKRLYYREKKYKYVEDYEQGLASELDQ

[2] = target: T3, chimeric P2X4(P2X2) receptor c7^I218-D224 (Homo sapiens, UniProt Q99571, A221E/D220H/I218T/K222A/T223S/Y219F); assay: cell-based
T3 sequence (Q99571 1-388 I218T/Y219F/D220H/A221E/K222A/T223S): T1 sequence (Q99571 1-388) with I218T, Y219F, D220H, A221E, K222A, T223S

[3] = target: T4, P2X4-Q308T receptor mutant (Homo sapiens, UniProt Q99571, Q308T); assay: cell-based
T4 sequence (Q99571 1-388 Q308T): T1 sequence (Q99571 1-388) with Q308T

[4] = target: T5, chimeric P2X4(P2X2) receptor c8^R265-L269 (Homo sapiens, UniProt Q99571, A266P/L269E/R265L); assay: cell-based
T5 sequence (Q99571 1-388 R265L/A266P/L269E): T1 sequence (Q99571 1-388) with R265L, A266P, L269E

[5] = target: T6, chimeric P2X4(P2X2) receptor c6^N208-S216 (Homo sapiens, UniProt Q99571, I209R/N208D/S216R/T211D/T212G); assay: cell-based
T6 sequence (Q99571 1-388 N208D/I209R/T211D/T212G/S216R): T1 sequence (Q99571 1-388) with N208D, I209R, T211D, T212G, S216R

[6] = target: T7, P2X4-D302I receptor mutant (Homo sapiens, UniProt Q99571, D302I); assay: cell-based
T7 sequence (Q99571 1-388 D302I): T1 sequence (Q99571 1-388) with D302I

[7] = target: T8, chimeric P2X4(P2X2) receptor c2-c5^C116-T186 (Homo sapiens, UniProt Q99571, A122H/A137L/A177Q/A181M/D121V/DEL149-175/E183P/G138D/H140L/INS118S/INS148CVPYYQGPSKTCEVFGWCPVEDGASV/INS179G/K127L/K180T/P120R/P176S/S131D/S136E/S141G/S145R/T123N/T124A/T133V/T139M/V125T/V144L); assay: cell-based
T8 sequence (Q99571 with tags, fused parts or gaps isoform Q99571-3 INS118S/P120R/D121V/A122H/T123N/T124A/V125T/K127L/S131D/T133V/S136E/A137L/G138D/T139M/H140L/S141G/V144L/S145R/INS148[…]/P149S/A150Q/INS152G/K153T/A154M/E156P): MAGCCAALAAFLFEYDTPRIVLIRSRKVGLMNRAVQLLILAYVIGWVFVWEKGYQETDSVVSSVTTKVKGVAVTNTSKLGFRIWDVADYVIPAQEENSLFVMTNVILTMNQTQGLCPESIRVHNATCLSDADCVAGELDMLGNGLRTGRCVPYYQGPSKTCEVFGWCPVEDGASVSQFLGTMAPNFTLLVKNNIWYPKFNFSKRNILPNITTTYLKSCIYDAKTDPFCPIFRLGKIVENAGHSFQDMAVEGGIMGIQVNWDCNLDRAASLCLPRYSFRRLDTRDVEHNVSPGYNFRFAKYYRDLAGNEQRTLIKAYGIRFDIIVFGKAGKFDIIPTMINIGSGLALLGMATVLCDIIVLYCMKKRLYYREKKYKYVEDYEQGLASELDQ

[8] = target: T9, human P2X4-E307T receptor mutant (Homo sapiens, UniProt Q99571, E307T); assay: ATP-induced calcium influx assay, P2X4-E307T mutant in 1321N1 astrocytoma cells; assay type: cell-based
T9 construct: expressed in transfected cells
T9 sequence (Q99571 1-388 E307T): T1 sequence (Q99571 1-388) with E307T

Which EC50 (human wt P2X4 receptor) does the source give for Nc1c(S(=O)(=O)O)cc(Nc2ccc(Nc3nc(Cl)nc(Nc4ccccc4S(=O)(=O)O)n3)c(S(=O)(=O)O)c2)c2c1C(=O)c1ccccc1C2=O [Cibacron Blue] here?
Its EC50 is 0.243 µM.

And the IC50 (human wt P2X4 receptor; wt P2X4, 1321N1 astrocytoma cells, inhibition vs ATP at its EC80, 30 min preincubation, read-out: IC50 ± SEM)?
The IC50 was 12.1 ± 4.2 µM.

What about the IC50 (human wt P2X4 receptor; wt hP2X4, read-out: pIC50 ± SEM (n value) (converted)) of the same compound?
The IC50 was 11 µM.

And the IC50 ([1]; IC50 ± SEM, P2X4(P2X2) c10^R301-Q308, 1321N1 astrocytoma cells, vs ATP at its EC80)?
The IC50 was 0.00476 ± 0.00062 µM.

What about the IC50 ([1]; pIC50 ± SEM (n value), c10^R301-Q308) of the same compound?
The IC50 was 0.00513 µM.

What about the IC50 [2] of the same compound?
Its IC50 is 23.6 µM.

What about the IC50 ([3]; IC50, P2X4-Q308T, ATP at EC80) of the same compound?
The IC50 was 10.4 µM.

What about the IC50 ([3]; pIC50 ± SEM (n value), P2X4-Q308T) of the same compound?
The IC50 was 10 µM.

What about the IC50 ([4]; IC50, c8^R265-L269, ATP at EC80) of the same compound?
Its IC50 is 20.3 µM.

And the IC50 ([4]; pIC50 ± SEM (n value), c8^R265-L269)?
The IC50 was 17.8 µM.

And the EC50 [5]?
Its EC50 is 0.53 µM.

What about the IC50 [5] of the same compound?
The IC50 was 8.6 µM.

And the IC50 [6]?
The IC50 was 1.42 µM.

And the IC50 [7]?
Its IC50 is 8.99 µM.

What about the IC50 ([8]; 1321N1 astrocytoma cells, vs ATP at its EC80, read-out: IC50 ± SEM) of the same compound?
Its IC50 is 0.0178 ± 0.0047 µM.

And the IC50 ([8]; read-out: pIC50 ± SEM (n value) (converted))?
The IC50 was 0.0166 µM.

Residue numbers refer to the chain shown, from its start. Like-named read-outs stand apart in the source and are kept apart here.
